IL2 activator – activates IL-2 in a cell-based reporter assay | IL-2 activation reporter assay, cell-based qHTS; stimulated with anti-CD3/CD4/CD28 beads; in transgenic mouse T cells | activation, % (series mostly up to about 46 µM) | 360,000 compounds, 0.065% hits; in the data active = activation above about 50%; inconclusive = mostly about 30% to 49%; also: 0% is about no effect
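Unstimulated transgenic mouse T cells, 750 per well, received compound and, after 60 minutes, anti-CD3/anti-CD4 bead plus anti-CD28 stimulation. EGFP and DsRed were quantified after 18 hours.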
RXFP1 ag – activates the human relaxin receptor RXFP1; Q9HBX9; HEK293T-RXFP1 cAMP TR-FRET, 30 min; response scale: percent of porcine relaxin response, buffer zero; Potency, µM (series often up to 57.5 µM), inactives show at the highest dose activation, hits mostly activators; 370,000 compounds, 0.3% hits; also: potency is read from the fitted curve at half-maximal effect; % is scaled to controls: 0 for no effect and ±100 for the full control effect; nearly all actives have a fitted effect of over 60% in size
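HEK293 cells stably expressing RXFP1, treated 30 min at 37C with compounds plus PDE4 inhibitor Ro 20174; cAMP measured by HTRF TR-FRET. Normalized to buffer and 29 nM porcine relaxin; EC50 by Hill fit.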
TCR activator – activates T cell receptor signaling | 330,000 tested, under 10 active | primary human leukocytes, anti-CD3, IL-2 HTRF, 48 h | Potency, µM (highest dose often 9.22 µM), without a hit: at the top dose activation of IL-2 secretion, actives largely listed as activators; also: % of control where 0% means no effect
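TCR engagement came from a-CD3 beads alone, with compounds added to primary human leukocytes for 48 hr. Secreted IL-2 bridged europium cryptate- and d2-labelled anti-IL-2 antibodies, giving FRET emission at 665nm after 320nm excitation.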
PINK1 modulator – modulators of PINK1 expression; PINK1 immunofluorescence, high-content cytometry, 24 h; Potency, µM (top dose mostly 76.6 µM), without a hit: at the top dose activation (PINK1 increase), hits mostly activators; 410,000 compounds, 0.2% hits; AID 624263; active = well fitted activation curve with a large enough effect; inconclusive = small, poorly fitted or top-dose-only effect; cell line not stated here; also: potency is read from the fitted curve at half-maximal effect; % of control where 0% means no effect; nearly all actives have a fitted effect of over 65% in size
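Decision-based qHTS: stable cells, 24 h exposure to five compound concentrations, CCCP as control. Fixed cells stained for PINK1 plus nuclear, mitochondrial and cell markers, cytometer read.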
RXFP1 antagonist – blocks the human relaxin receptor RXFP1; HEK293-RXFP1, relaxin-stimulated cAMP HTRF, 30 min; hits give low values; activity change, negative = inhibition, % at 57.5 µM; 350,000 compounds, 0.59% hits;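 active = activity change of -60% or lower, but not beyond a set lower limit; inconclusive = change between -60% and -40%, or beyond the set limit; inactive = change above -40%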; also: % is scaled to controls: 0 for no effect and ±100 for the full control effect
miR-21 reporter – miR-21 reporter, rising signal; HeLa miR-21 FLuc reporter, luciferase, 48 h; Potency, µM (top dose mostly 38.3 µM), without a hit: at the highest dose reporter change, positive = more light; 340,000 tested, under 10 active; active = well fitted rising curve with a large enough effect; inconclusive = small, poorly fitted or top-dose-only effect; inactive = no such curve, though single readings can be large or run the other way;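 further: % of control where 0% means no effect; miR-21 action dims this reporter so a rising signal means less miR-21 action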
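HeLa cells stably expressing CMV-driven firefly luciferase with a downstream miR-21 binding sequence, endogenously expressing miR-21, were treated with titrations (up to about 40uM final) for 48 hours at 37 degree Celsius. Luciferase luminescence was read after lysis.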
* = called active by the depositor; ? = inconclusive; . = not tested or not shown; [ ] = dose if it differs, or a comment. An excerpt weighted towards active compounds, which were near 0.78% of everything screened. Unless noted, calls follow the shape of the dose curve; as a rule, active = well fitted curve in the direction sought with a large enough effect; inconclusive = small, poorly fitted or top-dose-only effect, or another doubt; inactive = no such curve, though single readings can be large; an effect the other way counts as inactive or inconclusive.

Assay codes – A = IL2 activator; B = RXFP1 ag; C = TCR activator; D = PINK1 modulator; E = RXFP1 antagonist; F = miR-21 reporter
CCN1CCCC1CNC(=O)c1cnn(-c2nccc(-c3cc4ccccc4o3)n2)c1C (stereo not given)
  A = . | B = . | C = . | D = -1% | E = . | F = .

Oc1ccccc1C=NN=Cc1c(O)ccc2ccccc12
  A = 52* | B = . | C = 6% | D = 18% | E = -3 | F = .

CCOC(=O)c1sc(=S)n(C)c1NC(=O)c1cccc(Br)c1
  A = -4 | B = 1% | C = -6% | D = 40µM* | E = -6 | F = 19%

CCOC(=O)c1sc(=S)n(C)c1NC(=O)c1ccccc1
  A = -6 | B = 1% | C = 2%[46.1 µM] | D = -4% | E = 6 | F = -2%

CCNc1ccc(-c2nc(-c3ccncc3)no2)cc1[N+](=O)[O-]
  A = . | B = -5% | C = . | D = 14µM* | E = . | F = 7%

O=c1c(/C=C(\O)c2ccccc2)nc2ccccc2n1-c1ccccc1
  A = 89* | B = 0% | C = 1% | D = 10% | E = -6 | F = -18%

Cc1nc2ccccc2n1-c1ccccc1
  A = 0 | B = 2% | C = 0% | D = 2% | E = -2 | F = -8%

CCC1CN(CC(=O)NCc2cc(C)n(C)n2)Cc2cc(OC)ccc2O1 (stereo not given)
  A = . | B = . | C = . | D = -1% | E = . | F = .

CCOC(=O)c1c(-c2ccc(-c3ccccc3)cc2)csc1NC(=O)CNCCN(C)C
  A = -3 | B = 0% | C = 1% | D = -1% | E = -103* | F = ?

Cc1cc(C(F)(F)F)c2c(N)c(C(=O)Nc3cc(C)on3)sc2n1
  A = 28 | B = 7% | C = -33% | D = 22µM* | E = -3 | F = -49%

Nc1c(C(=O)Nc2ccccc2F)sc2nc(Cc3ccccc3)cc(C(F)(F)F)c12
  A = 51* | B = 8% | C = -26% | D = ? | E = 12 | F = 3%

Cc1cc(C)c2c(N)c(C(=O)Nc3ccccc3C(F)(F)F)sc2n1
  A = . | B = 19% | C = . | D = 2% | E = -1 | F = -57%

O=C(O)Cc1coc2ccc3ccccc3c12
  A = -1 | B = 2% | C = -1% | D = ? | E = -1 | F = -8%

Cc1cccc(NC(=O)Cc2coc3ccc4ccccc4c23)n1
  A = 1 | B = 0% | C = . | D = 11µM* | E = 6 | F = 16%

O=C(NCc1ccncc1)c1cnn(-c2nccc(-c3cccs3)n2)c1C1CC1
  A = . | B = . | C = . | D = 0% | E = . | F = .

Compound profiles, from the list above. Values in the order: IL2 activator	RXFP1 ag	TCR activator	PINK1 modulator	RXFP1 antagonist	miR-21 reporter
Cc1cc(C)c2c(N)c(C(=O)Nc3ccccc3C(F)(F)F)sc2n1 reads .	19%	.	2%	-1	-57%
CCOC(=O)c1c(-c2ccc(-c3ccccc3)cc2)csc1NC(=O)CNCCN(C)C reads -3	0%	1%	-1%	-103*	?

(more compounds)
Assay codes – A = IL2 activator; B = RXFP1 ag; C = TCR activator; D = PINK1 modulator; E = RXFP1 antagonist; F = miR-21 reporter
CCn1c2ccccc2c2cc(CN3CCN(Cc4cc(OC)c(O)c(OC)c4)CC3)ccc21
  A = . | B = 3% | C = . | D = 5% | E = -67* | F = -22%

CCn1c2ccccc2c2cc(CN3CCN(Cc4cc(OC)ccc4O)CC3)ccc21
  A = -4 | B = 3% | C = 7% | D = 1% | E = -9 | F = -2%

Cc1ccc2nc(N3CCCCCC3)c(CN(CC3CCCO3)C(=O)c3cncs3)cc2c1 (stereo not given)
  A = . | B = . | C = . | D = 0% | E = . | F = .

CCN(CC)S(=O)(=O)c1cccc(NC(=O)C2SC(=Nc3ccc(C)cc3C)C(C(=O)NCC3CCCO3)=C2N)c1 (stereo not given)
  A = -1 | B = -3% | C = 4% | D = 25µM* | E = -15 | F = 8%

COc1cc(=O)n2c(c1C(=O)NC(C)c1ccco1)CCN(C(=O)c1cccc(C)c1C)CC2 (stereo not given)
  A = . | B = . | C = . | D = 0% | E = . | F = .

COc1ccc(-c2cc(C(=O)NCc3ccco3)c3ccccc3n2)cc1OC
  A = 0 | B = . | C = -8% | D = 1% | E = 12 | F = .

COc1cccc(-c2cc(C(=O)NCc3ccco3)c3ccccc3n2)c1
  A = 2 | B = -2% | C = 5% | D = 0% | E = -86* | F = 2%

COc1cccc(-c2ccc(C#N)c(SCC(=O)NCc3ccco3)n2)c1
  A = 0 | B = 35µM* | C = 7% | D = 2% | E = -5 | F = -9%

CCOC(=O)CC(NC(=O)CCc1c(C)nc2nc(C)nn2c1C)c1ccc(OC(C)C)cc1 (stereo not given)
  A = -2 | B = 18µM* | C = -2% | D = 0% | E = -6 | F = -1%

CC(C)c1ccc(-c2c(C#N)c(N)nc(SCC(=O)N3CCCCC3)c2C#N)cc1
  A = 2 | B = 22µM* | C = 3% | D = 5% | E = 9 | F = -4%

CN1C(=O)C(N=Nc2ccc([N+](=O)[O-])cc2)SC1=S (stereo not given)
  A = -1 | B = . | C = 3% | D = 45µM* | E = -21 | F = .

CN1CCCCCC1=Nc1ccc([N+](=O)[O-])cc1
  A = 1 | B = . | C = -2% | D = -1% | E = 17 | F = .

CCOc1ccc(N(CCCCO)C(=S)NC(=O)c2ccc(C)c(Br)c2)cc1
  A = 0 | B = 0% | C = 5% | D = -1% | E = -90* | F = -14%

C=CCNC(=S)NC(=O)c1ccc(C)c(Br)c1
  A = 0 | B = 2% | C = -8% | D = 1% | E = -4 | F = -36%

CCc1cc(-c2n[nH]c(=S)n2-c2cccc(C)c2)cs1
  A = -4 | B = -1% | C = -2% | D = 3%[38.3 µM] | E = -3 | F = -21%

Structural class, the entries above with an aryl thioether with sulfur outside any ring (two)
Assay codes – A = IL2 activator; B = RXFP1 ag; C = TCR activator; D = PINK1 modulator; E = RXFP1 antagonist; F = miR-21 reporter
COc1cccc(-c2ccc(C#N)c(SCC(=O)NCc3ccco3)n2)c1
  A = 0 | B = 35µM* | C = 7% | D = 2% | E = -5 | F = -9%

CC(C)c1ccc(-c2c(C#N)c(N)nc(SCC(=O)N3CCCCC3)c2C#N)cc1
  A = 2 | B = 22µM* | C = 3% | D = 5% | E = 9 | F = -4%

The list goes on:
Assay codes – A = IL2 activator; B = RXFP1 ag; C = TCR activator; D = PINK1 modulator; E = RXFP1 antagonist; F = miR-21 reporter
Cc1cccc(-n2c(-c3csc(C)c3)n[nH]c2=S)c1
  A = -2 | B = 4% | C = 4% | D = 1%[38.3 µM] | E = -66* | F = 1%

Cc1ccc2nc(SCC(=O)N3CCOc4ccc(CN5C[C@@H](C)O[C@@H](C)C5)cc4C3)[nH]c2c1
  A = . | B = . | C = . | D = -1% | E = . | F = .

CC(Sc1ccc2ccccc2n1)C(=O)O (stereo not given)
  A = 0 | B = 11µM* | C = -41% | D = -1% | E = 48 | F = -7%

O=C(c1cc(-c2ccccc2)on1)N1CCOc2ccc(CN3CCOCC3)cc2C1
  A = . | B = . | C = . | D = -1% | E = . | F = .

O=C(c1ccncc1)N1CCC2(CCC(CNC(=O)C3(N4CCOCC4)CCCCC3)O2)CC1 (stereo not given)
  A = . | B = . | C = . | D = 1% | E = . | F = .

COc1cccc(CN(C)C(=O)c2cnn(-c3nccc(-c4ccc5c(c4)OCO5)n3)c2C)c1
  A = . | B = . | C = . | D = 0% | E = . | F = .

CCOC(=O)c1sc(NC(=O)CSc2nc(C)cc(C)n2)c(C#N)c1C
  A = -2 | B = 3% | C = 3% | D = 11%[38.3 µM] | E = -5 | F = -4%

CCOC(=O)c1c(NC(=O)CSc2n[nH]c(CNc3ccccc3)n2)sc(C)c1C
  A = -3 | B = -2% | C = -5%[46.1 µM] | D = 19%[38.3 µM] | E = ? | F = -4%

CCOC(=O)c1c(NC(=O)CSc2nc(C)cc(C)c2C#N)sc(C(C)=O)c1C
  A = -2 | B = 18µM* | C = -28% | D = 6% | E = -9 | F = 1%

CCOC(=O)c1c(NC(=O)CSc2nnc(-c3ccc(C)cc3)o2)sc(C(C)=O)c1C
  A = -1 | B = 0% | C = 8% | D = 3%[38.3 µM] | E = -10 | F = 0%

CCOC(=O)c1sc(NC(=O)CSc2n[nH]c(-c3ccccc3)n2)c(C#N)c1C
  A = -2 | B = 0% | C = 0% | D = 16µM* | E = -32 | F = 5%

CCOC(=O)c1c(NC(=O)CSc2n[nH]c(-c3ccco3)n2)sc(C)c1C
  A = -2 | B = -1% | C = -4% | D = 0% | E = -75* | F = -7%

COc1cc2nc(N(C)C)c(CNC3CCOC(C)(C)C3)cc2c(OC)c1OC (stereo not given)
  A = . | B = . | C = . | D = 0% | E = . | F = .

O=C([C@@H]1C[C@@H](Sc2nc3ccccc3[nH]2)CN1CC1CCCCC1)N1CCOCC1
  A = . | B = . | C = . | D = 0% | E = . | F = .

O=C1/C(=C/c2ccc(N3CCOCC3)o2)SC(=Nc2ccccc2)N1CCc1c[nH]c2ccccc12
  A = 12 | B = 2% | C = -1% | D = ? | E = -81* | F = ?

Cc1ccc(CN2CCOc3ccc(CN4CCC(Oc5cccnc5)CC4)cc3C2)o1
  A = . | B = . | C = . | D = -1% | E = . | F = .
